# Measurements: ChEMBL document CHEMBL3797125, “Discovery of GluN2A-Selective NMDA Receptor Positive Allosteric Modulators (PAMs): Tuning Deactivation Kinetics via Structure-Based Design” (J Med Chem, 2016)
# Chains of the proteins cited; added tags and fusions are not shown.
# UniProt Q12879, whole entry, looked up: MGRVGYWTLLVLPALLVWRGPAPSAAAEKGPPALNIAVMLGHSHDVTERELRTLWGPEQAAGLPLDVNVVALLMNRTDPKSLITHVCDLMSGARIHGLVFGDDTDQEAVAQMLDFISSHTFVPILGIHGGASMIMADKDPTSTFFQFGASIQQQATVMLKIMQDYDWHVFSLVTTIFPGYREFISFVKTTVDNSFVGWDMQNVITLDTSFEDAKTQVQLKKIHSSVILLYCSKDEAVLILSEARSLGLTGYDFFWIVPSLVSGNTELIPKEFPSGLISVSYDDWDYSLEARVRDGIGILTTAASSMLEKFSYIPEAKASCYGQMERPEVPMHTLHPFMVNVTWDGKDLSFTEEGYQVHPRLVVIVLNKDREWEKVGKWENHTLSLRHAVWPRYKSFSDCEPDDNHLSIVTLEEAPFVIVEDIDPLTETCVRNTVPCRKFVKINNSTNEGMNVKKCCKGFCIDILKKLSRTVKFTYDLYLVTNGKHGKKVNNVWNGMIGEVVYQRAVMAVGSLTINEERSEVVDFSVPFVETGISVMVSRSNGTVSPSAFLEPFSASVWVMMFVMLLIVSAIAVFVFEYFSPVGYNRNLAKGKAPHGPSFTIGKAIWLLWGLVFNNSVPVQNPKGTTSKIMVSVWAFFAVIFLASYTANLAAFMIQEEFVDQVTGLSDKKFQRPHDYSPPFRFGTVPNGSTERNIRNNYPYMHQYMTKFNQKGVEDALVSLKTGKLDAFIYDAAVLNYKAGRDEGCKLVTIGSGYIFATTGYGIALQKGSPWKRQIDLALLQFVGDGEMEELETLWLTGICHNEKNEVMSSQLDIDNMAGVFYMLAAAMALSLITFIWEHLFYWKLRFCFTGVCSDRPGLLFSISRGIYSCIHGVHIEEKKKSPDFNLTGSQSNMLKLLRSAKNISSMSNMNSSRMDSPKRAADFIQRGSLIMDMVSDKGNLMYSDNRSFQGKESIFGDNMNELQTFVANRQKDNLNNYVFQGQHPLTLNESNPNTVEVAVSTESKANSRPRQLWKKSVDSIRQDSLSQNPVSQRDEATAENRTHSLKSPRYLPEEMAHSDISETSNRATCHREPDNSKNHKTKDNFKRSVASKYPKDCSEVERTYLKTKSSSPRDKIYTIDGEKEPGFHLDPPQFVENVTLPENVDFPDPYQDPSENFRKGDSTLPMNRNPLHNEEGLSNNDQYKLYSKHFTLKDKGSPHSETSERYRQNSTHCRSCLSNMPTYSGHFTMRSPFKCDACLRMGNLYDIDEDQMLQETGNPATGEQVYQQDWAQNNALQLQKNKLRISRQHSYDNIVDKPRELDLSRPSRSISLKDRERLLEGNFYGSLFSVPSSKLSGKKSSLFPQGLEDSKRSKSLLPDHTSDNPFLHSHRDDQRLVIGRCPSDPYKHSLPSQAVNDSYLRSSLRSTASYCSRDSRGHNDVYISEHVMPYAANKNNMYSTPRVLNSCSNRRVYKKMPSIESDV
# UniProt Q13224, whole entry, looked up: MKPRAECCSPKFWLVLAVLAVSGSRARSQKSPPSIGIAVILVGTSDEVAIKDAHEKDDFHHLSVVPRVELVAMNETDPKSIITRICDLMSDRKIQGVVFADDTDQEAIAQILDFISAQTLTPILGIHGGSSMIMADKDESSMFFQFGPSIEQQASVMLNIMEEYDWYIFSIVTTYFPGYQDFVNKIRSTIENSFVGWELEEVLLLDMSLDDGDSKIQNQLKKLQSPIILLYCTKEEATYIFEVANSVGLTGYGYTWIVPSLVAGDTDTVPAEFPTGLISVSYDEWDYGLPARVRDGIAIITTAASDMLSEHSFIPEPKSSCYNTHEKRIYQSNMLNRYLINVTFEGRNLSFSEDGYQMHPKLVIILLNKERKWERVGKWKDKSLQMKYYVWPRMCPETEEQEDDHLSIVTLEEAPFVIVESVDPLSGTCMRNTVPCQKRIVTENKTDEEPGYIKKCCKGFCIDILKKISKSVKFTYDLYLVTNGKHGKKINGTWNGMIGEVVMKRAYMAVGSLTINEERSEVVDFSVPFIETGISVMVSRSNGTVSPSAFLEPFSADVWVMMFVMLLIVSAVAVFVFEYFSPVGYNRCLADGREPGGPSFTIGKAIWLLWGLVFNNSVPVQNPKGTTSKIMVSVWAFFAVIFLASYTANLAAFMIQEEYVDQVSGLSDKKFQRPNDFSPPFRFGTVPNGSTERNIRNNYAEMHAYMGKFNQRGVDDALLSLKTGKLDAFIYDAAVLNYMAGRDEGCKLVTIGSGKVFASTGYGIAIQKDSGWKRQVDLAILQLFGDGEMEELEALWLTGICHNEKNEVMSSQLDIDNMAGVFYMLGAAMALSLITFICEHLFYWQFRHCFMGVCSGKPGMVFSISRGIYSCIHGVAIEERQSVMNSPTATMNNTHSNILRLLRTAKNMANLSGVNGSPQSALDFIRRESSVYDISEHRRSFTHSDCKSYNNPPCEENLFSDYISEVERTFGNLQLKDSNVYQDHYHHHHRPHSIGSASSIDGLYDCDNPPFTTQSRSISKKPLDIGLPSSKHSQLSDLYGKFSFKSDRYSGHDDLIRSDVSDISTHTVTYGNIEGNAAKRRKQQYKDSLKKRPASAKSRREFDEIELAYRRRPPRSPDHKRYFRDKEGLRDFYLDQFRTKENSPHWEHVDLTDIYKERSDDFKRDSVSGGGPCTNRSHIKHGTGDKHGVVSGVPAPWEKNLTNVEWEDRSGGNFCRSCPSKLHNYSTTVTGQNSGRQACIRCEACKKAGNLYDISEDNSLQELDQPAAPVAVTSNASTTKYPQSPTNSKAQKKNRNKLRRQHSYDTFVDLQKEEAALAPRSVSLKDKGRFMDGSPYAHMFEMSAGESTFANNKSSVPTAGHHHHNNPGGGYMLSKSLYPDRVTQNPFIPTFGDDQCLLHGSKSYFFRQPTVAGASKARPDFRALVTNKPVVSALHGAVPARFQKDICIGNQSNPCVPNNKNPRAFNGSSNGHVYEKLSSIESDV
# Key:
# Assay type in all cases: cell-based
# Homo sapiens = organism: Homo sapiens; assay: Selectivity ratio of EC50 for human GluA2 AMPAR flop isomer to EC50 for GluN1/GluN2A NMDAR (unknown origin) expressed in Dox-inducible cells
# [1] = molecular target: Glutamate NMDA receptor; GRIN1/GRIN2A (Homo sapiens, UniProt Q05586+Q12879); assay: Positive allosteric modulation of GluN1/GluN2A NMDAR (unknown origin) expressed in Dox-inducible cells at 125 uM measured every 5 mins by BD calcium indicator dye based-fluorescence analysis in presence of glutamate/glycine
# In short: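 GluN2A-containing NMDAR cell line, harvested, seeded, doxycycline 2 µg/mL overnight with 500 µM ketamine for protection, then washed and loaded with calcium dye for 50 min. Compound added at 2x concentration in 2x EC30 Glu (EC30 set daily from Glu dose-response); saturating Gly throughout; fluorescence recorded over 5 min. 10-point 1:2 dilutions; EC50 as geometric mean of ≥2 determinations; max potentiation at 125 µM where no EC50, baseline 30% (EC30 Glu).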
# [2] = molecular target: Glutamate NMDA receptor; GRIN1/GRIN2B (Homo sapiens) (UniProt Q05586+Q13224); assay: Positive allosteric modulation of GluN1/GluN2B NMDAR (unknown origin) expressed in Dox-inducible cells at 125 uM measured every 5 mins by BD calcium indicator dye based-fluorescence analysis in presence of glutamate/glycine
# In short: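 Doxycycline-induced (2 µg/mL, overnight, 500 µM ketamine) GluN2B-containing NMDAR cells, loaded with calcium dye for 50 min; compound added at 2x in 2x EC30 Glu, with saturating Gly; fluorescence recorded over 5 min. Max potentiation at 125 µM reported where no EC50 obtained; 30% denotes baseline (EC30 Glu).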
compound,measurement,setting,value
N#C[C@@H]1C[C@H]1c1c(C(F)(F)F)sc2nc(Cn3nc(C(F)(F)F)cc3Cl)cc(=O)n12,Ratio EC50,Homo sapiens,> 250
same,%max,[1],152%
same,%max,[2],49%
